This is a selection; strong and weak results do not stand in their true shares. Activity calls are given as the source filed them.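 Rule for the calls: active = calcium response B-score plate-corrected fluorescence ratio at least 3 library SD, with starting fluorescence B-score inside 5 SD; inactive = the rest.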

Amino acid sequences for entries named in this document (tags omitted).
UniProt Q96LB2, whole entry: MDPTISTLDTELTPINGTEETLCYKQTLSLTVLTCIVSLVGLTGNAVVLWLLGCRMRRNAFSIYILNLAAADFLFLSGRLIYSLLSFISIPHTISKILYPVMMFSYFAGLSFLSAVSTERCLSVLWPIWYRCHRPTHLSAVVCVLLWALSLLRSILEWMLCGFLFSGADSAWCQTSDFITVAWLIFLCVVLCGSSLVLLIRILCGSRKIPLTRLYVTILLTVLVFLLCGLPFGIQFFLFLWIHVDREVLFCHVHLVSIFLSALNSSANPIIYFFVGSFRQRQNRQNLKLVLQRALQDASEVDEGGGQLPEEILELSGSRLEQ

In this experiment the target is Mas-related G-protein coupled receptor member X1 (Homo sapiens) (UniProt Q96LB2). In words: agonists of human MrgX1 receptor, primary screen, HEK293 cells, Fluo-4 calcium flux (AID 588627). Particulars: Fluo-4 calcium fluorescence, agonist mode, at 10 µM. The method, boiled down:
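System – MrgX1-expressing HEK293 cells · Incubation – cells plated overnight, dye loaded 0.5 h 37 °C, 0.5 h room temperature · Technique – kinetic Fluo-4 NW fluorescence of intracellular calcium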
Background: A change in cytosolic calcium serves as a functional read-out for many receptors and channels.
For `CC(=O)Nc1ccc([As](=O)(O)O)c(O)c1`, the outcome was inactive. For `COc1ccccc1OP(C)(=O)Nc1cccc(Br)c1` (stereo unspecified) the value was “inactive”; for `CS(=O)(=O)c1ccc(Cl)c(NC(=O)COC(=O)C(O)(c2ccccc2)c2ccccc2)c1`, “inactive”; for `COc1cc(C(=O)NCC2(N3CCOCC3)CCCCC2)cc(Cl)c1OC(C)C`, “inactive”.

For `O=[As](O)(O)c1cccnc1`, the result was inactive. `O=C(OC1CN2CCC1CC2)c1ccc(Cl)cc1` (stereo unspecified): the outcome was inactive. As for `CCOC(=O)c1ccc(NP(C)(=O)Oc2cc(C)cc(C)c2)cc1` (stereo unspecified), the outcome was inactive. The entry for `Cc1cc(C)cc(OP(C)(=O)Nc2ccc(C)cc2C)c1` (stereo unspecified) is “inactive”; for `O=[As](O)(c1cccc(O)c1)c1cccc(O)c1` it is “inactive”; for `Cc1cccc(OCC(=O)OC2CN3CCC2CC3)c1` (stereo unspecified) it is “inactive”. As to `CCCOP(=S)(Nc1nc(N)cc(=O)[nH]1)OCCC`, the outcome was inactive. Consider `Cc1ccc(C)c(NP(C)(=O)Oc2ccccc2)c1` (stereo unspecified), for which the outcome was inactive. Regarding `Cc1ccc(NCCc2c([N+](=O)[O-])cc([N+](=O)[O-])cc2[N+](=O)[O-])cc1`, the result was inactive. With `Nc1cccc2c([As](=O)(O)O)cccc12`, the outcome was inactive. On to `CP(=O)(Nc1cccc(Br)c1)Oc1ccccc1` (stereo unspecified), for which the outcome was inactive. Regarding `Cc1cc(C)cc(OP(C)(=O)Nc2ccccn2)c1` (stereo unspecified), the outcome was inactive. For the compound `CCOP(=O)(Nc1cccc2ccccc12)OCC`, the result was inactive. Turning to `CS(=O)(=O)c1cc([N+](=O)[O-])c2no[n+]([O-])c2c1`, the result was inactive. For the compound `O=P(Nc1nccs1)(c1ccccc1)c1nc2ccccc2s1` (stereo unspecified), the result was inactive. Regarding `O=P(Nc1nccs1)(Oc1ccccc1)Oc1ccccc1`, the outcome was inactive. As to `CCOP1(=S)c2c(C)nn(CCC#N)c2N=C(c2ccccc2F)N1C` (stereo unspecified), the outcome was inactive. The entry for `O=C(O)c1cccc(Nc2c([N+](=O)[O-])cc([N+](=O)[O-])cc2[N+](=O)[O-])c1` is “inactive”; for `Nc1ccccc1[As](=O)(O)c1ccccc1` it is “inactive”. The entry for `O=C(O)COc1ccc([As](=O)(O)O)cc1[N+](=O)[O-]` is “inactive”; for `NC(=O)Nc1ccc([As](=O)(O)O)cc1` it is “inactive”. With `CN(C(=O)Cc1ccc(Cl)c(Cl)c1)[C@H]1CC[C@@]2(CCCO2)C[C@@H]1N1CCCC1`, the result was inactive. Consider `CC1=NCCc2c1[nH]c1ccccc21.O=[N+]([O-])c1cc([N+](=O)[O-])c(O)c([N+](=O)[O-])c1`, for which the outcome was inactive. Consider `CN(C)C(=O)c1cc([N+](=O)[O-])cc2c1-c1c(cc([N+](=O)[O-])cc1[N+](=O)[O-])C2=O`, for which the result was inactive. Consider `O=[N+]([O-])c1ccc2c(c1)nnn2O`, for which the outcome was inactive. For the compound `CCOP1(=S)c2c(C)nn(CCC#N)c2N=C(c2ccc(F)cc2)N1C` (stereo unspecified), the outcome was inactive. As to `CN(C(=O)Cc1ccccc1)[C@@H]1CC[C@]2(CCCO2)C[C@H]1N1CCCC1`, the result was inactive. Consider `N#CCCN(C(=O)COC(=O)C(O)(c1ccccc1)c1ccccc1)c1ccc(F)cc1`, for which the outcome was inactive. Consider `COc1cc(C2NCCC3(OCCO3)C2(C)C)cc(OC)c1OC.O=[N+]([O-])c1cc([N+](=O)[O-])c(O)c([N+](=O)[O-])c1` (stereo unspecified), for which the outcome was inactive. Turning to `CC1CCC(C(C)C)C(OP(=O)(Nc2ccccn2)c2ccccc2)C1` (stereo unspecified), the outcome was inactive. Consider `Cc1ccc(C(=O)OC2CN3CCC2CC3)cc1` (stereo unspecified), for which the result was inactive.

For the compound `Cc1nn(-c2ccccc2)c2c1P(=O)(N1CCOCC1)N(C)C(c1ccccc1)=N2` (stereo unspecified), the result was inactive.

For the compound `O=C(/C=C/c1ccccc1)OC1CN2CCC1CC2` (stereo unspecified), the outcome was inactive. Take `CCOC(=O)C(CC)C1=NC(C)(C)Cc2ccccc21.O=[N+]([O-])c1cc([N+](=O)[O-])c(O)c([N+](=O)[O-])c1` (stereo unspecified): the result was inactive. On to `O=[N+]([O-])c1cc([N+](=O)[O-])c(Nc2nnnn2CCO)c([N+](=O)[O-])c1`, for which the outcome was inactive. As to `CN(C)C1(CNC(=O)c2ccc(S(C)(=O)=O)cc2)CCCCC1`, the result was inactive. As for `CC1=C2N=C(C=C3N=C(C(C)=C4[N-][C@@](C)([C@@H]5N=C1[C@](C)(CCC(=O)NC[C@@H](C)OP(=O)([O-])O[C@H]1[C@@H](O)[C@@H](n6cnc7cc(C)c(C)cc76)O[C@@H]1CO)[C@H]5CC(N)=O)[C@@](C)(CC(N)=O)[C@@H]4CCC(N)=O)[C@@](C)(CC(N)=O)[C@@H]3CCC(N)=O)C(C)(C)[C@@H]2CCC(N)=O.[C-]#N.[Co+3]`, the result was inactive.

As for `O=P1(Nc2ncccn2)COc2ccccc2OC1`, the outcome was inactive.

With `COc1ccccc1OP(C)(=O)Nc1c(C)cccc1C` (stereo unspecified), the result was inactive. For `CN1CCCCC1COC(=O)C1(O)c2ccccc2CCc2ccccc21` (stereo unspecified), the result was inactive.

As for `O=P1(Nc2ccc(Br)cn2)COc2ccccc2OC1`, the outcome was inactive.

For the compound `Cc1ccc(OCC(=O)OC2CN3CCC2CC3)cc1` (stereo unspecified), the outcome was inactive. `O=[As](O)(c1cccs1)c1cccs1`: the result was inactive. With `Nc1cccc([As](=O)(O)c2ccccc2)c1`, the outcome was inactive.

In the case of `CP(=O)(Nc1ccc(SC(F)(F)F)cc1)Oc1ccccc1` (stereo unspecified), the outcome was inactive. For `CCCOc1ccc(NP(C)(=O)Oc2ccc(Cl)cc2)cc1` (stereo unspecified) the value was “inactive”. As for `CN(CCCl)Cc1cc(Cl)c(NC2=NCCN2)c(Cl)c1`, the outcome was inactive. Consider `CCOP(=O)(Nc1ccc(C)cn1)OCC`, for which the result was inactive.

In the case of `CCOP(=O)(NC(=NC(C)c1ccccc1)NC(C)c1ccccc1)OCC` (stereo unspecified), the result was inactive. For the compound `O=[N+]([O-])c1cc([N+](=O)[O-])c(-n2nnc3ccccc32)c([N+](=O)[O-])c1`, the result was inactive. As to `O=P1(Nc2ccccn2)COc2ccccc2OC1`, the result was inactive. In the case of `CCC1=CC2Cc3nc4ccc(Cl)cc4c(N)c3C(C1)C2` (stereo unspecified), the outcome was inactive. For `CC(C)(C)C(=O)NC(Sc1ncccn1)C(Cl)(Cl)Cl` (stereo unspecified) the value was “inactive”; for `Clc1n[nH]nc1-c1nn[nH][15n]1`, “inactive”. For `COc1ccccc1CNC(=O)COC(=O)C(O)(c1ccccc1)c1ccccc1`, the result was inactive. As for `O=[N+]([O-])c1cc([N+](=O)[O-])c(-c2cnn(-c3ccccc3)c2)c([N+](=O)[O-])c1`, the outcome was inactive.

As to `CC1(CBr)Cn2c(nc3ccccc3c2=O)S1` (stereo unspecified), the outcome was inactive.

On to `Cc1nc2ccc3ccccc3c2s1.O=[N+]([O-])c1cc([N+](=O)[O-])c(O)c([N+](=O)[O-])c1`, for which the outcome was inactive. For the compound `O=[As](O)(c1ccccc1Br)c1ccccc1Br`, the result was inactive.

With `CC(C)/C=N\N=C(\N)N[N+](=O)[O-]`, the result was inactive. With `CN(C(=O)Cc1ccc(Cl)c(Cl)c1)[C@@H]1CCCC[C@H]1N1CCCC1`, the outcome was inactive.

`CP(=O)(Oc1ccccc1)OC(c1ccccc1)C(F)(F)F` (stereo unspecified): the outcome was inactive.
